# Giardia kill = Giardia lamblia killing. AID 540267. actives 0.15% (n = 340,000). activity change, % at 7.66 µM, hits read low. Giardia lamblia trophozoite viability; in the data active = activity change below about -80%; inconclusive = between about -30% and that limit;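 note: parasites exposed to compound for two days anaerobically before the ATP read; % is set by controls: 0 for no effect and ±100 for the full control effect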
#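 Anaerobic 48 hrs incubation at 37 deg C of 100 trophozoites/well with test compounds; ATPLite 1-Step luminescence, 15-30 min RT, reports cellular ATP as viability.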
# Rango dissoc inh = inhibitors of RanGTP-induced Rango-importin beta complex dissociation. O95149+P62826. Biochemical FRET Rango-importin beta, RanGTP-induced dissociation. Potency, µM (titrated, usually from 46.1 µM), inactives show at the highest dose activity change, negative = inhibition. actives 0.071% (n = 340,000). AID 540253; note: potency is the fitted concentration of half-maximal effect; % of control where 0% means no effect; nearly all actives have a fitted effect of over 45% in size
#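 Two FRET readings bracket the reaction: one 5 min after compound meets Rango–importin beta, another 45 min after RanGTP-RCC1 (0.6 uM Ran, 0.2 uM RCC1, 2 mM GTP) is added. Only the second defines inhibition.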
# a7 integrin act = activators of alpha7 integrin expression for muscular dystrophy. alpha7betagal myoblasts, beta-gal FDG fluorescence, 48 h. Potency, µM (titrated, usually from 38.3 µM), for inactives: at the highest dose activation, usual class: activators. actives 0.064% (n = 350,000); active = well fitted activation curve with a large enough effect; inconclusive = small, poorly fitted or top-dose-only effect; inactive = no such curve, though single readings can be large or run the other way;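 note: potency is the fitted concentration of half-maximal effect; 100% = response of the positive control SU9516; nearly all actives have a fitted effect of over 60% in size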
#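 alpha7betagal+/- myoblasts (passage 13, 250/well) treated 48 h at 37C with compounds at 1:260 dilution of DMSO stock. Lysed, then beta-galactosidase activity read as FDG fluorescence (ex 480/em 540) after 30 min, with pre-read for autofluorescence.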
# uPA surface inh = inhibitors of cell surface uPA generation. Potency, µM (doses to about 38.3 µM), without a hit: at the top dose activity change, negative = inhibition, most hits filed as inhibitors. cell surface uPA generation assay, qHTS. AID 540303. actives 0.31% (n = 330,000); active = well fitted inhibition curve with a large enough effect; inconclusive = small, poorly fitted or top-dose-only effect; inactive = no such curve, though single readings can be large or run the other way; tested in mouse RAW 264.7 cells; note: potency is the fitted concentration of half-maximal effect; % is set by controls: 0 for no effect and ±100 for the full control effect; nearly all actives have a fitted effect of over 55% in size
# Rango-impB inh = inhibitors of Rango-importin beta complex formation; AID 540263; Rango CFP/YFP FRET sensor + importin beta, 45 min; Potency, µM (doses to about 92.2 µM), without a hit: top-dose inhibition of complex formation; actives 0.031% (n = 340,000); Q14974;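 note: potency is the fitted concentration of half-maximal effect; 0% = DMSO wells and 100% = buffer wells lacking importin beta; nearly all actives have a fitted effect of over 15% in size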
#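 FRET biosensor Rango (snurportin 1 IBB between N-terminal EYFP and C-terminal Cerulean), 50 nM in PBS/1 mM DTT/0.02% Tween-20/0.1% BSA, preincubated 5 min RT with compound; 0.125 microM importin beta added, 45 min RT, CFP/YFP FRET ratio read.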
# Active calls of the source: *; i = inactive; u = inconclusive; x = no result given. Rows were chosen to be rich in hits. Some 0.59% of all compounds tested hit in one or more screens of this group. Unless noted, calls come from the whole dose curve.
No.	Molecule	Giardia kill	Rango dissoc inh	a7 integrin act
1	CC1Oc2cc3c(-c4c(O)cc(O)c5c(O)c6c(cc45)OC(C)C(C)C6=O)c(O)cc(O)c3c(O)c2C(=O)C1C (configuration not stated)	-82.4*	0.1%	-49.4%
2	C[C@@H]1C[C@H]2[C@@H]3CCC4=CC(=O)C=C[C@]4(C)[C@@]3(Cl)[C@@H](O)C[C@]2(C)[C@@]1(OC(=O)c1ccco1)C(=O)CCl	10.8	6.2%	x
3	COCC1CCCCN1C(=O)c1ccc(OC)c(OC2CCN(C(C)C)CC2)c1 (configuration not stated)	-26.5	30.8%	-32.2%
4	Oc1ccccc1-[n+]1c(-c2ccccc2)cc(-c2ccccc2)cc1-c1ccccc1	-12.2	-6.6%	-50.5%
5	Cc1ccccc1-[n+]1c(-c2ccccc2)cc(-c2ccccc2)cc1-c1ccccc1	6.1	-0.8%	-41.0%
6	COc1ccccc1OC(=O)Oc1ccccc1OC	-10.8	-11.4%	-38.1%
7	O=Cc1cc(OCc2ccccc2)ccc1[B-](F)(F)F	-5.3	3.0%	-19.5%
8	O=C(Nc1ccc(N2CCCC2)cc1)c1ccccc1[N+](=O)[O-]	-2.7	8.0%	u
9	O=C(N/N=C/c1ccc([N+](=O)[O-])s1)c1ccccc1Br	-95.9*	-3.5%	-57.9%
10	Cc1ccc([N+](=O)[O-])cc1	1.4	-7.7%	x
11	Cc1ccc(C(=O)Nc2ncc([N+](=O)[O-])s2)cc1	-86.5*	-11.4%	23.5%
12	C[C@]12c3[nH]c4ccc(Cl)cc4c3CCN1C(=O)[C@@H](CC(=O)NCc1ccco1)C[C@@H]2C(=O)N1CCCCC1	4.9	4.9%	-13.0%
13	COC(=O)C1=C(c2cccc(OCc3ccccc3)c2)C[C@@H]2CC[C@H]1N2C(=O)NCc1ccccc1	-12.3	3.3%	-9.9%
14	COC(=O)C1=C(c2cccc(OCc3ccccc3)c2)C[C@@H]2CC[C@H]1N2C(=O)NCc1ccccc1OC	15.6	20.6%	-12.9%
15	COc1ccc(NCC(=O)N2CCCC2)cc1Cl	-12.5	0.6%	i

No.	uPA surface inh	Rango-impB inh
1	5.62µM*	9.5%
2	u	1.3%
3	u	-0.8%
4	u	-0.3%
5	7.94µM*	-3.2%
6	-12.1%	-0.1%
7	u	-1.1%
8	u	-1.8%
9	u	-3.8%
10	1.5%	2.8%
11	u	u
12	u	-1.2%
13	u	1.6%
14	14.1µM*	-3.5%
15	x	-1.1%

# Going on with the list:
No.	Molecule	Giardia kill	Rango dissoc inh	a7 integrin act
16	C=CCN1C(=O)/C(=C\c2ccc(N3CCOCC3)o2)C(=O)NC1=S	3.8	7.4%	-10.6%
17	CN(C)c1ccc(/C=C(\Cl)c2nc3ccccc3s2)cc1	u	u	-8.1%
18	Cc1ccc(NC(=O)c2ccc(S(=O)(=O)N(C)c3ccccc3)cc2)cc1S(=O)(=O)N1CCOCC1	-26.4	-15.9%	-1.9%
19	c1ccc(CN2CCC(Nc3nc(-c4cccs4)nc4ccccc34)CC2)cc1	7.5	-6.7%	-12.8%
20	CC(C)c1oc(=O)cc2c1[C@@H](O)[C@H]1OC(=O)[C@@]3(C)C[C@@H](O)[C@@H](O)[C@@]2(C)C13 (some centres not stated)	6.2	u	-37.8%
21	CS(=O)(=O)c1ccc2nc(NC(=O)c3ccccc3Br)sc2c1	5.6	0.1%	24.5%
22	COc1c(O)ccc(/C=N\NC(=O)c2ccc3c(c2)OCO3)c1[N+](=O)[O-]	12.0	-1.5%	23.1%
23	COC(=O)[C@H]1[C@H]2C[C@@H]3c4[nH]c5cc(OC)ccc5c4CCN3C[C@H]2C[C@@H](OC(=O)/C=C/c2cc(OC)c(OC)c(OC)c2)[C@@H]1OC	-18.0	5.8µM*	x
24	CCc1cn(C2CC(O)C(CO)O2)c(=O)[nH]c1=O (configuration not stated)	13.0	11.7%	-44.9%
25	O=[N+]([O-])c1ccc(-c2ccccc2)c([As](=O)(O)O)c1	-81.9*	7.6%	-29.8%
26	O=C(CSc1nnc(NC(=O)c2ccccc2[N+](=O)[O-])s1)NCc1ccco1	6.9	-8.2%	-0.7%
27	O=C(NCc1nc2ccccc2[nH]1)C1=C[C@@H](c2ccc(C(F)(F)F)cc2)C[C@@H](OCc2ccc(CO)cc2)O1	-2.4	-8.6%	-39.1%
28	O=C1C=C(c2ccc3ncccc3c2)C[C@@H](c2ccc(Cl)cc2)C1	2.7	-6.8%	-30.1%
29	C[C@H]1CNC(=O)c2c(C(=O)Nc3ccc(CNC(=O)OC(C)(C)C)cc3)ncn21	x	x	8.91µM*
30	Cc1nc2c(=O)n(C)c(=O)nc-2n(C)n1	-107.3*	-5.8%	-49.5%

No.	uPA surface inh	Rango-impB inh
16	-3.4%	65.1µM*
17	10µM*	u
18	u	-2.3%
19	u	3.3%
20	2.24µM*	2.6%
21	u	-0.5%
22	u	-3.9%
23	-25.6%	u
24	10µM*	-1.1%
25	3.5%	0.4%
26	-1.4%	-5.2%
27	u	2.8%
28	u	-1.7%
29	x	x
30	-7.8%	-0.5%

# (list continues)
No.	Molecule	Giardia kill	Rango dissoc inh	a7 integrin act
31	COc1ccc(-c2nc3ccccc3c(=O)n2-c2ccc(OC)cc2)cc1	-0.5	-0.3%	-51.6%
32	CCn1nc(-c2ccccc2)nc2c(=O)n(C)c(=O)nc1-2	-88.6*	u	-61.4%
33	Cn1nc(-c2ccccc2)nc2c(=O)n(C)c(=O)nc1-2	-89.4*	x	x
34	O=C(CN1CCN(C(=O)CNC(=O)c2ccc(-c3ccccc3)cc2)CC1)Nc1ccccc1Cl	x	x	-50.3%
35	CNC(=O)Oc1ccc(-c2cn3cc(C)ccc3n2)cc1	-108.2*	0.6%	14.3%
36	CNP(=O)(Oc1ccccc1)OC12CC3CC(CC(C3)C1)C2 (configuration not stated)	10.2	0.0%	10µM*
37	O=P(Nc1ccccc1)(Oc1ccccc1)Oc1ccccc1	-12.9	-19.0%	0.7%
38	Cc1cc([N+](=O)[O-])c2ccccc2[n+]1[O-]	-88.5*	-10.4%	-65.2%
39	O=[N+]([O-])c1cccc2c([N+](=O)[O-])cccc12	13.9	8.7%	x
40	Cc1cccc(N2C(=O)/C(=C/c3ccc(CN(CCC#N)S(C)(=O)=O)o3)C(=O)NC2=S)c1	-8.1	23.1µM*	-22.4%
41	Cc1ncc([N+](=O)[O-])n1CCOc1nonc1N	-86.5*	-3.6%	-23.0%
42	Nc1nonc1OCCCCOc1nonc1N	-8.1	-16.7%	2.8%
43	COc1ccc([C@@]2(C(C)C)ON(c3ccccc3C(F)(F)F)C2=O)cc1	26.0	8.6%	24.5%
44	CC1CN(c2ccc([N+](=O)[O-])c3cccnc23)CC(C)N1 (configuration not stated)	-86.5*	2.8%	0.0%
45	O=[N+]([O-])c1ccc(N2CCCC2)c2ncccc12	5.6	14.0%	41.9%
46	CC(=O)O[C@@]12CO[C@@H]1C[C@H](O)[C@@]1(C)C(=O)[C@H](O)C3=C(C)[C@@H](OC(=O)[C@H](O)[C@@H](NC(=O)c4ccccc4)c4ccccc4)C[C@@](O)([C@@H](OC(=O)c4ccccc4)C12)C3(C)C (some centres not stated)	20.4	12.8%	-46.3%

No.	uPA surface inh	Rango-impB inh
31	1.7%	-1.3%
32	-19.1%	14.8%
33	x	x
34	x	x
35	-11.3%	3.1%
36	2.0%	6.3%
37	28.0%	-0.1%
38	u	-1.2%
39	5.6%	-1.9%
40	-6.4%	u
41	11.0%	0.7%
42	-0.6%	0.1%
43	u	-3.7%
44	0.7%	-3.0%
45	0.2%	1.7%
46	0.447µM*	0.4%

# Entries by screen from the entries so far:
# Giardia kill, compounds 32–38, in order: -88.6*, -89.4*, x, -108.2*, 10.2, -12.9, -88.5*

# Entries of single compounds as entered above:
# Cc1cccc(N2C(=O)/C(=C/c3ccc(CN(CCC#N)S(C)(=O)=O)o3)C(=O)NC2=S)c1 is listed as Giardia kill = -8.1; Rango dissoc inh = 23.1µM*; a7 integrin act = -22.4%; uPA surface inh = -6.4%; Rango-impB inh = u
# Cc1ncc([N+](=O)[O-])n1CCOc1nonc1N is listed as Giardia kill = -86.5*; Rango dissoc inh = -3.6%; a7 integrin act = -23.0%; uPA surface inh = 11.0%; Rango-impB inh = 0.7%
